Experimental data reported in ChEMBL document CHEMBL1129803, “Novel phenyl nitrogen mustard and half-mustard derivatives of distamycin A” (1997).

System: L1210
Test: Compound was tested in vivo for cytotoxicity against L1210 murine leukemia cells in mice after intravenous administration and is expressed as optimal non-toxic dose

Structure (SMILES)	OD [mg/kg]
CCN(CCCl)c1ccc(/C=C/C(=O)Nc2cc(C(=O)Nc3cc(C(=O)Nc4cc(C(=O)NCCC(=N)N)n(C)c4)n(C)c3)n(C)c2)cc1	3.13
Cc1cc(C(=O)Nc2cc(C(=O)Nc3cc(C(=O)Nc4cc(C(=O)NCCC(=N)N)n(C)c4)n(C)c3)n(C)c2)ccc1N(CCCl)CCCl	3.13
Cc1cc(C(=O)Nc2cc(C(=O)Nc3cc(C(=O)Nc4cc(C(=O)NCCC(=N)N)n(C)c4)n(C)c3)n(C)c2)cc(C)c1N(CCCl)CCCl	6.25
CCN(CCCl)c1ccc(C(=O)Nc2cc(C(=O)Nc3cc(C(=O)Nc4cc(C(=O)NCCC(=N)N)n(C)c4)n(C)c3)n(C)c2)cc1C	1.56
Cn1cc(NC(=O)c2cc(NC(=O)c3cc(NC(=O)c4ccc(N(CCBr)CCBr)cc4)cn3C)cn2C)cc1C(=O)NCCC(=N)N	0.39
CCN(CCCl)c1ccc(C(=O)Nc2cc(C(=O)Nc3cc(C(=O)Nc4cc(C(=O)NCCC(=N)N)n(C)c4)n(C)c3)n(C)c2)cc1	3.13
CCCN(CCCl)c1ccc(C(=O)Nc2cc(C(=O)Nc3cc(C(=O)Nc4cc(C(=O)NCCC(=N)N)n(C)c4)n(C)c3)n(C)c2)cc1	3.13
Cn1cc(NC(=O)c2cc(NC(=O)c3cc(NC(=O)/C=C/c4ccc(N(CCCl)CCCl)cc4)cn3C)cn2C)cc1C(=O)NCCC(=N)N	6.25
